Results: patent publication US9816075B2, “Compounds with modifying activity enhanced under hypoxic conditions” (Board of Regents, The University of Texas System, priority 2005, dated 2017)

Assay: Animal toxicity screen / MTD by intraperitoneal injection
Conditions: mice, a = maximum dose due to poor solubility, b = acutely toxic with a single animal at 0.2 mg in 200 μL (about 6.0 mg/kg)

[Ru2(phen)4tatpq]^4+ [[Ru2(phen)4(tatpq)]^4+]
MTD: 17 mg/kg

[Ru2(phen)4tatpp]^4+ [[Ru2(phen)4(tatpp)]^4+]
MTD: 67 mg/kg
